# Measured affinities in a library of Ab-14 light chain variants

Antigen: PDVDLGDISGINAS, a 14-residue peptide of the SARS-CoV-2 spike HR2 region.

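AAYL50 was designed without a model: most single CDR substitutions and a random sample of double and triple ones. Affinity was read by AlphaSeq, a pooled yeast mating assay with surface-displayed partners. Pairs that bind mate more often; barcode pairs of the diploids are counted by sequencing. Scores were corrected for input abundance and mapped to Kd with protein pairs of known affinity run in the same pool. Each pool was mated in three replicate cultures.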

The variants keep the heavy chain, the linker and the frameworks of Ab-14 (scFv order VH, three GGGGS repeats, VL).
VH: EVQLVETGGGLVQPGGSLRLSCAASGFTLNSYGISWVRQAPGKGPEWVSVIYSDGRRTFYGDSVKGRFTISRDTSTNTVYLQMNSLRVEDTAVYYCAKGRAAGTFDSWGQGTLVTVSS
VL: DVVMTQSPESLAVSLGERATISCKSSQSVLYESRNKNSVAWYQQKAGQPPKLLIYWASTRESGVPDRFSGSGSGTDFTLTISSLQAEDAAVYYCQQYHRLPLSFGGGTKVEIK

Each variant is given by its three light chain CDRs, as the data file delimits them; those of the parent are KSSQSVLYESRNKNSVA, WASTRES, QQYHRLPLS.
Numbers give log10(Kd / nM), so 0 is 1 nM and 3 is 1 µM. Smaller is tighter.
"n.d." means that the variant was in the library but no mating with the target was seen in that replicate; the authors take this as a sign of poor binding, and no number exists.
Empty control strains, which show no peptide, gave a signal in 18% of pairings with library AAYL50; the median was 4.19 and 95% of these signals were weaker than 2.99. No background was subtracted. The control count says in how many pairings with the empty strains this scFv gave a signal, with their mean in brackets.
Parent in this assay: reference entry 0.65, copy in this library 1.68.

| CDR-L1 | CDR-L2 | CDR-L3 | log10 Kd (nM) by replicate | signal with controls |
|---|---|---|---|---|
| KSSQQVLYESRNKNSVA | RASTHES | QQYHRLPLS | 2.58 / 2.61 / 2.50 | 2 of 9 (2.77) |
| KSSQSVLYESRNKFSHA | IASTRES | QQYHRLPLS | n.d. / n.d. / n.d. | 1 of 9 (4.42) |
| KSSQSSLYESRNNNSVA | WASTRES | QQYHRLPQS | 2.27 / 1.39 / 1.22 | 0 of 9 |
| KWSQSVLYESRNKNSVA | WGSFRES | QQYHRLPLS | n.d. / n.d. / n.d. | 0 of 9 |
| KSSQSVLYESRNKNSVA | WAAARED | QQYHRLPLS | 2.91 / 2.21 / 3.61 | 1 of 9 (3.19) |
| KSSQSVLYESRNKNSVL | WAYTREY | QQYHRLPLS | n.d. / n.d. / n.d. | 1 of 9 (3.74) |
| KSSQSVLYESRGKNSVN | EASTRES | QQYHRLPLS | n.d. / 4.14 / 4.07 | 3 of 9 (3.86) |
| KSSQSVYYESRNKNSGA | WASTRES | QSYHRLPLS | 4.58 / n.d. / n.d. | 1 of 9 (2.88) |
| KPSQSVLYEWRNKNSVM | WASTRES | QQYHRLPLS | n.d. / 2.92 / n.d. | 1 of 9 (3.14) |
| KSSQSVLYESRNKNSVA | MASTRES | QQQIRLPLS | 0.89 / 1.05 / 1.06 | 3 of 9 (4.03) |
| KSSPSLLYESRNKNSVA | WASTRES | QQYHRHPLS | 1.88 / 1.66 / 1.84 | 1 of 9 (4.43) |
| KSSQSVLIESRNKNSVA | LASTRES | QQYHRLPLN | 3.25 / 2.65 / 2.88 | 2 of 9 (4.21) |
| KSSQSVLYESRNKNSVA | WASTRES | QQKHIAPLS | n.d. / 3.94 / n.d. | 1 of 9 (3.17) |
| KSCQSELYESRNKNVVA | WASTRES | QQYHRLPLS | n.d. / n.d. / n.d. | 0 of 9 |
| ESSQSVLYESRKKNSVA | WASTRES | QQYHRLPLS | 2.16 / 2.03 / 2.56 | 0 of 9 |
| KVSQSVLYESRLKNSFA | WASTRES | QQYHRLPLS | 2.20 / 2.79 / 2.60 | 5 of 9 (3.70) |
| KSSQPVLYESRNKNYVA | WASTRES | QQYHRLGLS | n.d. / n.d. / n.d. | 2 of 9 (3.14) |
| KSSQSVLYPSRNKNSYA | WASTRSS | QQYHRLPLS | 3.49 / 3.34 / 2.88 | 0 of 9 |
| KSLQSVLYESRWKNCVA | WASTRES | QQYHRLPLS | n.d. / n.d. / n.d. | 0 of 9 |
| YSSQSVLYESRNKNSVA | WASTRES | QQYHCLPSS | 4.23 / n.d. / 4.23 | 3 of 9 (4.32) |
| KSSQSVLYESRNKNSVA | WASTRET | QFYHELPLS | 2.37 / 2.40 / 2.86 | 0 of 9 |
| KHSQSVLYESRNKNSVA | WASTRES | QMYHRLPLS | 3.09 / 2.58 / 2.83 | 2 of 9 (3.96) |
| KSSQSVHYESRNKNSVA | WASTLES | QQYHRLPLS | 1.43 / 1.66 / 1.63 | 3 of 9 (4.09) |
| KSSQSLLYESRNKNSVA | LLSTRES | QQYHRLPLS | n.d. / 2.74 / 2.46 | 0 of 9 |
| KSKQSCLYESRNKNSVA | WAKTRES | QQYHRLPLS | n.d. / n.d. / n.d. | 1 of 9 (3.03) |
| KSSQSVHYESRNKNSVA | WAGTRES | QQYHRLPFS | 1.73 / 1.68 / 1.71 | 0 of 9 |
| KSSQSVLYESRNKNSVW | WASTRES | EQYHRLPLY | n.d. / n.d. / n.d. | 1 of 9 (4.38) |
| KSSQSVLYESRNENSVA | YASTRES | QQYSRLPLS | 1.37 / 1.41 / 1.39 | 3 of 9 (4.80) |
| PLSQSVLYESRNKNSVA | WASTRES | SQYHRLPLS | n.d. / n.d. / 5.99 | 2 of 9 (4.17) |
| KSSQSVLDESRNKNSVA | WESTREM | QQYHRLPLS | 0.07 / 0.34 / 0.10 | 4 of 9 (3.24) |
| KSSQSVLYESRLKQCVA | WASTRES | QQYHRLPLS | n.d. / n.d. / n.d. | 1 of 9 (4.62) |
| KSSQSVLYESRNKNSVA | CASTRES | QQYHRAPTS | n.d. / 3.29 / 5.21 | 0 of 9 |
| KSSQSFLYESYNKNSVA | WASTMES | QQYHRLPLS | n.d. / 2.71 / n.d. | 0 of 9 |
| KSKISVLYESRNKNSVA | WASTRER | QQYHRLPLS | 1.60 / 1.87 / 1.97 | 1 of 9 (3.81) |
| CSSQSVLYESRGCNSVA | WASTRES | QQYHRLPLS | 2.25 / 2.47 / 2.67 | 1 of 9 (4.13) |
| KSSQSCLYESRWKNSVA | WASTRES | QQYHRLPKS | 5.01 / n.d. / n.d. | 3 of 9 (4.34) |
| KSSWSVLYESRNKNSVA | WASTYES | LQYHRLPLS | n.d. / n.d. / n.d. | 0 of 9 |
| KSSQIVLYESRNKNSVA | WASTREY | QQLHRLPLS | n.d. / 3.98 / n.d. | 0 of 9 |
| KSSQSVLYEQRNKNSVA | WASTRSS | YQYHRLPLS | n.d. / n.d. / n.d. | 0 of 9 |
| KSSQSVLYESRNKNSVA | WASTRES | QQYHPLPLS | n.d. / n.d. / n.d. | 1 of 9 (3.06) |
| KSSQSVLYESRNKNSLA | WASTRED | QQYHRLPRS | 1.36 / 1.53 / 1.94 | 1 of 9 (2.96) |
| KSSQSVLYESRNKNSVA | WCSTRES | QQYHVLPLS | 4.95 / n.d. / n.d. | 0 of 9 |
| KSSQSVLYNSRNKQSVA | WCSTRES | QQYHRLPLS | 3.62 / n.d. / n.d. | 0 of 9 |

Repeated from above, the 5 best binders with a signal in all replicates:

| CDR-L1 | CDR-L2 | CDR-L3 | log10 Kd (nM) by replicate | signal with controls |
|---|---|---|---|---|
| KSSQSVLDESRNKNSVA | WESTREM | QQYHRLPLS | 0.07 / 0.34 / 0.10 | 4 of 9 (3.24) |
| KSSQSVLYESRNKNSVA | MASTRES | QQQIRLPLS | 0.89 / 1.05 / 1.06 | 3 of 9 (4.03) |
| KSSQSVLYESRNENSVA | YASTRES | QQYSRLPLS | 1.37 / 1.41 / 1.39 | 3 of 9 (4.80) |
| KSSQSVHYESRNKNSVA | WASTLES | QQYHRLPLS | 1.43 / 1.66 / 1.63 | 3 of 9 (4.09) |
| KSSQSVLYESRNKNSLA | WASTRED | QQYHRLPRS | 1.36 / 1.53 / 1.94 | 1 of 9 (2.96) |

Reference: Engelhart et al. 2022, doi:10.1038/s41597-022-01779-4. File: FLAb, binding data.